Data from PMC3100590 (Journal of medicinal chemistry, 2011).

Protein sequences, listed by entry. Tags and fused reporters are not part of them. Lines headed by an entry give the natural chain unless they say otherwise; changes in a name come on top.
UniProt P35462, whole entry: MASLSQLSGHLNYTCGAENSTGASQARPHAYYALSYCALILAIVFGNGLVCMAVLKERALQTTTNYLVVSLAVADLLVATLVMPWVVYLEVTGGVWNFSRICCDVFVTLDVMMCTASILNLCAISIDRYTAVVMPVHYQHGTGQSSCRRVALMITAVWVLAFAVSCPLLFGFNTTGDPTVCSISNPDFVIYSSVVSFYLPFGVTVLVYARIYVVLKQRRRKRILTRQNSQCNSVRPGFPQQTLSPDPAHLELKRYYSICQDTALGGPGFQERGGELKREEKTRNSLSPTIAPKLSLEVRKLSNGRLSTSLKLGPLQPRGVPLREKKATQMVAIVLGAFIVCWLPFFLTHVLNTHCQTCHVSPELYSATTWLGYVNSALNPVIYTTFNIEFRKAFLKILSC

Target: human D3 dopamine receptor (D3R) (Homo sapiens, UniProt P35462)
Assay type: binding
Details: read-out: D3R Ki ± S.E.M.; Table 2; HEK 293 hD3R, 125I-IABN

Ki: 101 ± 27 nM
Substance: N-(Benzo[b]thiophen-2-ylmethyl)-4-(4-(2,3-dichlorophenyl)piperazin-1-yl)-N-propylbutan-1-amine [Compound 13b]
